These results are taken from PMC10893053, “Mechanistic Insight in Permeability through Different Membranes in the Presence of Pharmaceutical Excipients: A Case of Model Hydrophobic Carbamazepine” (Pharmaceutics, 2024).

Each structure is given as a SMILES string.

The data set can be described thus: Free CBZ fraction estimation. Type of data set: physicochemical.

Turning to `NC(=O)N1c2ccccc2C=Cc2ccccc21` [CBZ, carbamazepine], the “Free fraction of CBZ (ffree)” value reads like this: (F127 1.33 mmol·L-1) 0.647; (F127 2.30 mmol·L-1) 0.350; (SBE-β-CD 6.89 mmol·L-1) 0.288; (SBE-β-CD 13.78 mmol·L-1) 0.168; (SBE-β-CD 20.67 mmol·L-1) 0.119; (no excipient (0 mmol·L-1)) 1.
